Test results taken from patent publication US10889587B2, “Tebipenem pivoxil crystalline forms, compositions including the same, methods of manufacture, and methods of use” (SPERO THERAPEUTICS, INC., priority 2017, dated 2021).

How the values were obtained:
Format in all cases: physicochemical
[1] = Storage stability: XRPD and HPLC analysis post storage at 40° C./75% RH or 25° C./97% RH; details: for HPLC purity post storage / XRPD analysis / appearance post storage: 1 week
Excerpt: Samples were run under ambient conditions as flat plate specimens using powder as received. The sample was gently packed into a cavity cut into polished, zero-background (510) silicon wafer. The sample was rotated in its own plane during analysis.

VT-XRPD = test: VT-XRPD
[2] = GVS (Gravimetric Vapor Sorption) and XRPD analysis post GVS

HPLC purity post storage ([1]; 25° C./97% RH): 96.5%
XRPD analysis / appearance post storage ([1]; 25° C./97% RH): week, and was a powder post-
XRPD analysis / appearance post storage ([1]; 40° C./75% RH and 25° C./97% RH (both conditions)): Unchanged by XPRD after 1
Appearance post storage ([1]; 40° C./75% RH and 25° C./97% RH for 1-4 weeks, within 2 weeks): deliquesced within 2 weeks
XRPD analysis / appearance post storage ([1]; 40° C./75% RH): 25/97 but a gum post-40/75.
HPLC purity post storage ([1]; 40° C./75% RH, HPLC method not stated at the place): 95.5%
VT-XRPD form changes upon heating (VT-XRPD): Some changes upon heating
GVS uptake [2]: Sample is hygroscopic. 6.2%
Hygroscopicity by GVS [2]: Sample is hygroscopic. 6.2%
GVS isotherm step ([2]; 0 to 10% RH): to 10% RH (3.0% wt.) and 80
GVS isotherm step ([2]; 80 to 90% RH): 1.4 % wt.
Substance: Tebipenem Pivoxil HBr Methane Sulfonate Salt (MSA) [Example 7]
